Biological target: Beta-1 adrenergic receptor (Rattus norvegicus, UniProt P18090)
Test: Binding of [3H]dihydroalprenolol to beta-1 adrenergic receptor of rat cerebral cortical membranes
Format: cell membranes, Membrane
Summary of the method: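 Competition assay measuring displacement of specific [3H]dihydroalprenolol binding from rat cerebral cortical membranes to give beta-1 adrenergic receptor affinity.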

The chains behind the UniProt entries cited, without tags or fusion partners.
UniProt P18090, whole entry: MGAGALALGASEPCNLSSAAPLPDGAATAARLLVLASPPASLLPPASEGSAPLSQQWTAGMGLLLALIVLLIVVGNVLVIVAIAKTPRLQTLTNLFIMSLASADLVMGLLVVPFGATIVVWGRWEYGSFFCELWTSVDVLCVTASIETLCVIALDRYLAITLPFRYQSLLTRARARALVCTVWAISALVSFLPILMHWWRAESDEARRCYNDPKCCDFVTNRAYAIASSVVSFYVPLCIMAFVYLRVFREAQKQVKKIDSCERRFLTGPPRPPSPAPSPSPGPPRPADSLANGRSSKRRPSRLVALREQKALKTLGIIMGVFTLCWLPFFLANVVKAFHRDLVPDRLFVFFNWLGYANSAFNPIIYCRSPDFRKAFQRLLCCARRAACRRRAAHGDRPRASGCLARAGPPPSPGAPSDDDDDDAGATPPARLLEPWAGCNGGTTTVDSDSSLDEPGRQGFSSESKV

A Ki of 10 µM was found for NCCc1ccc(O)c(O)c1 [DOPAMINE] in this work.
